One test concerns the target T1, bombesin/GRP receptor (Mus musculus, UniProt P21729).
T1 construct: Membrane protein (150 μg) prepared from Swiss 3T3 cells as described above; endogenous in cells; host or cells: Swiss 3T3 cells; membrane-enriched fraction prepared with 5 mM Mg2+
Description: 125I-GRP binding to membrane preparations of Swiss 3T3 cells. As to conditions: addition at 1μM; 0.5 nM 125I-GRP, 37° C., 10 minutes; None 305 ± 9; mean±SEM, n=3. Further details: species or system murine. On the procedure:
Membrane preparation: Cultures in roller bottles were washed twice with 150 ml phosphate buffered saline (PBS) (0.14M NaCl, 5 mM KCl, 0.01M Na2 HPO4, 1.8 mM KH2 PO4; pH 7.2) at room temperature. The cells were then harvested at 4° C. by scraping into ice cold PBS containing 5 mM MgCl2, 1 mM [ethylenebis(oxyethylenenitrilo)]tetraacetic acid (EGTA), 1 mg/ml bacitracin, 10 ug/ml aprotonin, 1 mg/ml soybean trypsin inhibitor and 50 μM phenylmethylsulphonyl fluoride. All subsequent steps were carried out at 4° C. […]
The binding reactions were terminated at the specified times by rapid filtration on GF/B glass fibre filters (Whatmann, 1.0 μm pore size). […] Radioactivity was determined with a Beckmann γ-counter.
When 1n[(Beq - Bt)/(BoLo - Beq Bt)]is plotted as a function of time k1 can be determined from the slope by the following relation k1 =slope x [Beg/(Beg^2 - BoLo)](36) where Bo and Lo are the initial concentrations of receptor and ligand respectively. […]
The first order rate constant of dissociation was determined from the slope of the line obtained by plotting ln(Bt/Beg) as a function of time.
The reactions were terminated and specific binding determined as described in "Experimental Procedures".

By UniProt entry, the sequences of proteins in these tests, tags left out. Where a name states a change or a piece, a line headed by the entry shows the natural chain unless it says otherwise.
UniProt P21729: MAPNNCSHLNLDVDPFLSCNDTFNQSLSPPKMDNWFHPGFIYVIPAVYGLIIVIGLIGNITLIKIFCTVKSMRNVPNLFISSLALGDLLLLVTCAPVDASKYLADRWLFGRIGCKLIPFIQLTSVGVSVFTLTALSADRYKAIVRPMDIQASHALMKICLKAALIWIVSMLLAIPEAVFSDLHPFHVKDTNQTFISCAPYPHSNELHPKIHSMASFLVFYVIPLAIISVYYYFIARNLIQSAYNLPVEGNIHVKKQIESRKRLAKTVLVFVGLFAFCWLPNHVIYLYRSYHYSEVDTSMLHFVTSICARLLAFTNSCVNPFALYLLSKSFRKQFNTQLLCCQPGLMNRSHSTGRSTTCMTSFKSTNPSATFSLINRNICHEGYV

Another test has as its target T2, Mr 75,000-85,000 protein (Mus musculus, UniProt P21729).
T2 construct: Membrane protein (150 μg) prepared from Swiss 3T3 cells as described above; endogenous in cells; host or cells: Swiss 3T3 cells; membrane-enriched fraction prepared with 5 mM Mg2+
Put plainly: Chemical cross-linking (EGS) of 125I-GRP to the Mr 75,000-85,000 protein in Swiss 3T3 membranes. It counts as binding, murine. As to conditions: 10 min, addition at 10 μM, 0.5 nM 125I-GRP, 37° C., None 100, read-out: 125I-GRP affinity labelling of the Mr 75,000-85,000 protein. On the procedure:
BSA was omitted from all solutions used in the cross-linking studies. At the end of the incubation the membranes were centrifuged at 1000 rpm for 1 minute in a MSE microfuge at room n temperature. The pellets were then resuspended in cross-linking medium containing 4 mM of the cross-linking reagent (EGS) and incubated at 37° C. or 15° C. for 5 minutes or 15 minutes respectively. The reaction was terminated by centrifugation for 1 minute followed by one wash with cross-linking medium and centrifugation. Samples were solubilised in 0.20 ml of 2× sample buffer, (0.2 M Tris-HCl pH 6.8, 10% (w/v) glycerol, 6% sodium dodecyl sulphate (SDS) (w/v), 4% β-mercaptoethanol (v/v), and 2 mM EDTA), immediately heated to 100° C. for 10 minutes and analysed by one dimensional electrophoresis.
SDS-Polyacrylaaide Gel glectrophoresis: Slab gel electrophoresis was performed using 8% acrylamide in the separating gel and 4% in the stacking gel and 0.1% SDS (37). After electrophoresis gels were stained, desrained and dried down onto paper for autoradiography with Fuji x-ray film. Dried gels were exposed for 2-4 days at -70° C. Autoradiograms were scanned using an LKB ultrascan XL densitometer; and the incorporation of radioactivity into the Mr 75,000-85,000 band was quantified using the Ultroscan XL internal digital integrator. […]

The record followed here is patent US5434132A, “Neuropeptide antagonists” (Imperial Cancer Research Technology, Ltd., priority 1988, dated 1995).

Each structure is given as a SMILES string.

For the compound `CSCC[C@H](NC(=O)[C@H](CCCCN)NC(=O)[C@@H](NC(=O)[C@H](CC(C)C)NC(=O)[C@@H](NC(=O)[C@@H](NC(=O)CNC(=O)CNC(=O)CNC(=O)[C@H](C)NC(=O)[C@@H]1CCCN1C(=O)[C@H](CC(C)C)NC(=O)[C@@H]1CCCN1C(=O)[C@@H](N)C(C)C)[C@@H](C)O)C(C)C)[C@@H](C)O)C(=O)N[C@@H](Cc1ccc(O)cc1)C(=O)N1CCC[C@H]1C(=O)O` [GRP(1-16)], the “specific binding of 125I-GRP to membranes” value at bombesin/GRP receptor came to 299 ± 8 fmole/mg protein. In addition, at Mr 75,000-85,000 protein, the remaining activity at 10 µM worked out at 102 ± 3%.
